# Assay results reported in PubChem BioAssay AID493036 (Sanford-Burnham Center for Chemical Genomics, 2011).
# Protein sequences, listed by entry. Tags and fused reporters are not part of them.
# UniProt P30989, whole entry: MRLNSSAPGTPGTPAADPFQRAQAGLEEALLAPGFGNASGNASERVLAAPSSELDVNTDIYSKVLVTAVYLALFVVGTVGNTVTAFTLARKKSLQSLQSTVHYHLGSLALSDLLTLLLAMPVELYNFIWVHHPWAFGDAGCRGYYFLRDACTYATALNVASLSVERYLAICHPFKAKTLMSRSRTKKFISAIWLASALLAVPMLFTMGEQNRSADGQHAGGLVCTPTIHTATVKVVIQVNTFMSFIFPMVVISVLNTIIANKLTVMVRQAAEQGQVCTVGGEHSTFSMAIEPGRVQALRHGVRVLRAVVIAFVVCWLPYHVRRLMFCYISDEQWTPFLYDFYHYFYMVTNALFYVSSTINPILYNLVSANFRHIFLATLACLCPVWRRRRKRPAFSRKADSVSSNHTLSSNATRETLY
# Only a part is listed here, and it is no random draw. The source made the active and inactive calls.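 How the source made its calls: active means activation at or above 40% of the spot to cytoplasm intensity ratio, with at least 20 cells analyzed; inconclusive means wells under 20 cells, flagged as cytotoxic or low count; inactive means the rest.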
# Molecular target: Neurotensin receptor type 1 (Homo sapiens) (UniProt P30989)
# Assay: NTR1-driven beta-arrestin-GFP spot formation – imaging, U2OS cells, high content, primary screen (AID 493036) (AID 493036);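 further: 0% = DMSO without peptide and 100% = 100 nM NTR1 peptide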
# Conditions: agonist mode, at 20 µM, hits give high values
row,SMILES,activation
1,O=P(Nc1nc2ccccc2s1)(c1ccccc1)c1ccccc1,inactive: -1.4%
2,O=P(Nc1ccccn1)(c1ccc(Br)cc1)c1ccc(Br)cc1,inactive: -0.2%
3,CN(C)C1(CNC(=O)c2ccc(Cl)c(S(N)(=O)=O)c2)CCCCC1,inactive: -0.7%
4,COc1ccc(OP(C)(=O)Nc2cccc(Br)c2)cc1 (centres undefined),inactive: -0.8%
5,O=C(OC1CN2CCC1CC2)c1cccc(Cl)c1 (centres undefined),inactive: 1%
6,Nc1ccc([As](=O)(O)c2ccc([N+](=O)[O-])cc2)cc1,inactive: 1%
7,C(Cc1nn[nH]n1)Cc1nn[nH]n1,inactive: -1%
8,O=[N+]([O-])c1cc([N+](=O)[O-])c(NCC2CCS(=O)(=O)C2)c([N+](=O)[O-])c1 (centres undefined),inactive: 1.2%
9,O=[As](O)(c1ccccc1)c1ccc(O)cc1,inactive: -1.4%
10,O=[N+]([O-])c1ncn(CCn2cnc([N+](=O)[O-])n2)n1,inactive: 0.6%
11,c1nnnn1CCn1cnnn1,inactive: 2%
12,CCOP(C)(=S)SCC(=O)NC(C)(CC)C(=O)O (centres undefined),inactive: -2.1%
13,CC(C)C(=O)NC(Sc1ccccc1)C(Cl)(Cl)Cl (centres undefined),inactive: -1.5%
14,O=P(Nc1nccs1)(c1ccccc1)c1ccccc1,inactive: 0.6%
15,CP(=O)(Nc1ccc(SC(F)(F)F)cc1)Oc1ccc(F)cc1 (centres undefined),inactive: -0.3%
16,Cc1ccccc1NP(C)(=O)Nc1ccccc1C,inactive: 2.1%
17,CP(=O)(Nc1ccc2c(c1)OCCO2)Oc1ccccc1 (centres undefined),inactive: -0.1%
18,CC(C)(C)C(=O)NC(Sc1ncccn1)C(Cl)(Cl)Cl (centres undefined),inactive: -0.2%
19,Clc1n[nH]nc1-c1nn[nH][15n]1,inactive: 0.1%
20,CCOP(=O)(NC(=NC(C)c1ccccc1)NC(C)c1ccccc1)OCC (centres undefined),inactive: 2.7%
21,O=[N+]([O-])c1cc([N+](=O)[O-])c(-n2nnc3ccccc32)c([N+](=O)[O-])c1,inactive: 1%
22,O=P1(Nc2ccccn2)COc2ccccc2OC1,inactive: -1.4%
23,CCC1=CC2Cc3nc4ccc(Cl)cc4c(N)c3C(C1)C2 (centres undefined),inactive: 7%
24,CN(CCCl)Cc1cc(Cl)c(NC2=NCCN2)c(Cl)c1,inactive: 1.3%

row,SMILES,activation
1,CCOP(=O)(Nc1ccc(C)cn1)OCC,inactive: 1.4%
2,CC(C)/C=N\N=C(\N)N[N+](=O)[O-],inactive: -0.7%
3,CN(C(=O)Cc1ccc(Cl)c(Cl)c1)[C@@H]1CCCC[C@H]1N1CCCC1,inactive: -2.9%
4,CC1(CBr)Cn2c(nc3ccccc3c2=O)S1 (centres undefined),inactive: -0.2%
5,Cc1nc2ccc3ccccc3c2s1.O=[N+]([O-])c1cc([N+](=O)[O-])c(O)c([N+](=O)[O-])c1,inactive: -0.5%
6,O=[As](O)(c1ccccc1Br)c1ccccc1Br,inactive: -1.3%
7,O=[N+]([O-])c1cc([N+](=O)[O-])c(-c2cnn(-c3ccccc3)c2)c([N+](=O)[O-])c1,inactive: 9.5%
8,COc1ccccc1CNC(=O)COC(=O)C(O)(c1ccccc1)c1ccccc1,inactive: 1%
9,CCOC(=O)C(CC)C1=NC(C)(C)Cc2ccccc21.O=[N+]([O-])c1cc([N+](=O)[O-])c(O)c([N+](=O)[O-])c1 (centres undefined),inactive: 0.1%
10,O=[N+]([O-])c1cc([N+](=O)[O-])c(Nc2nnnn2CCO)c([N+](=O)[O-])c1,inactive: -0.7%
11,CN(C)C1(CNC(=O)c2ccc(S(C)(=O)=O)cc2)CCCCC1,inactive: 1.5%
12,CC1=C2N=C(C=C3N=C(C(C)=C4[N-][C@@](C)([C@@H]5N=C1[C@](C)(CCC(=O)NC[C@@H](C)OP(=O)([O-])O[C@H]1[C@@H](O)[C@@H](n6cnc7cc(C)c(C)cc76)O[C@@H]1CO)[C@H]5CC(N)=O)[C@@](C)(CC(N)=O)[C@@H]4CCC(N)=O)[C@@](C)(CC(N)=O)[C@@H]3CCC(N)=O)C(C)(C)[C@@H]2CCC(N)=O.[C-]#N.[Co+3],inactive: -0.3%
13,O=C(/C=C/c1ccccc1)OC1CN2CCC1CC2 (centres undefined),inactive: -0.4%
14,CC1CCC(C(C)C)C(OP(=O)(Nc2ccccn2)c2ccccc2)C1 (centres undefined),inactive: 7.5%
15,Cc1ccc(C(=O)OC2CN3CCC2CC3)cc1 (centres undefined),inactive: -1.4%
16,Cc1nn(-c2ccccc2)c2c1P(=O)(N1CCOCC1)N(C)C(c1ccccc1)=N2 (centres undefined),inactive: -0.2%
17,COc1cc(C2NCCC3(OCCO3)C2(C)C)cc(OC)c1OC.O=[N+]([O-])c1cc([N+](=O)[O-])c(O)c([N+](=O)[O-])c1 (centres undefined),inactive: 0.2%
18,CP(=O)(Nc1ccc(SC(F)(F)F)cc1)Oc1ccccc1 (centres undefined),inactive: -0.2%
19,Nc1cccc([As](=O)(O)c2ccccc2)c1,inactive: 2.1%
20,CCCOc1ccc(NP(C)(=O)Oc2ccc(Cl)cc2)cc1 (centres undefined),inactive: 0.6%
21,O=P1(Nc2ccc(Br)cn2)COc2ccccc2OC1,inactive: 1.5%
22,NS(=O)(=O)c1cccc(NC(=O)COC(=O)C(O)(c2ccccc2)c2ccccc2)c1,inactive: 1.2%
23,Cc1ccc(OCC(=O)OC2CN3CCC2CC3)cc1 (centres undefined),inactive: 2.3%
24,O=[As](O)(c1cccs1)c1cccs1,inactive: 1.6%

row,SMILES,activation
1,O=P1(Nc2ncccn2)COc2ccccc2OC1,inactive: 0.6%
2,COc1ccccc1OP(C)(=O)Nc1c(C)cccc1C (centres undefined),inactive: -0.8%
3,CN1CCCCC1COC(=O)C1(O)c2ccccc2CCc2ccccc21 (centres undefined),inactive: -1.5%
4,Nc1ccccc1[As](=O)(O)c1ccccc1,inactive: -1.5%
5,O=C(O)COc1ccc([As](=O)(O)O)cc1[N+](=O)[O-],inactive: -1%
6,O=P(Nc1nccs1)(c1ccccc1)c1nc2ccccc2s1 (centres undefined),inactive: 0.2%
7,O=P(Nc1nccs1)(Oc1ccccc1)Oc1ccccc1,inactive: -0.7%
8,CCOP1(=S)c2c(C)nn(CCC#N)c2N=C(c2ccccc2F)N1C (centres undefined),inactive: -0.5%
9,O=C(O)c1cccc(Nc2c([N+](=O)[O-])cc([N+](=O)[O-])cc2[N+](=O)[O-])c1,inactive: 1.7%
10,CS(=O)(=O)c1cc([N+](=O)[O-])c2no[n+]([O-])c2c1,inactive: 2.3%
11,CN(C(=O)Cc1ccccc1)[C@@H]1CC[C@]2(CCCO2)C[C@H]1N1CCCC1,inactive: -0.3%
12,CCOP1(=S)c2c(C)nn(CCC#N)c2N=C(c2ccc(F)cc2)N1C (centres undefined),inactive: -0.1%
13,N#CCCN(C(=O)COC(=O)C(O)(c1ccccc1)c1ccccc1)c1ccc(F)cc1,inactive: -0.2%
14,CN(C(=O)Cc1ccc(Cl)c(Cl)c1)[C@H]1CC[C@@]2(CCCO2)C[C@@H]1N1CCCC1,inactive: -0.8%
15,CC1=NCCc2c1[nH]c1ccccc21.O=[N+]([O-])c1cc([N+](=O)[O-])c(O)c([N+](=O)[O-])c1,inactive: -0.2%
16,CN(C)C(=O)c1cc([N+](=O)[O-])cc2c1-c1c(cc([N+](=O)[O-])cc1[N+](=O)[O-])C2=O,inactive: 1.6%
17,O=[N+]([O-])c1ccc2c(c1)nnn2O,inactive: -1.5%
18,NC(=O)Nc1ccc([As](=O)(O)O)cc1,inactive: -2.4%
19,Cc1cc(C)cc(OP(C)(=O)Nc2ccc(C)cc2C)c1 (centres undefined),inactive: 0.4%
20,O=[As](O)(c1cccc(O)c1)c1cccc(O)c1,inactive: 0.1%
21,Cc1cccc(OCC(=O)OC2CN3CCC2CC3)c1 (centres undefined),inactive: -0.1%
22,CCOC(=O)c1ccc(NP(C)(=O)Oc2cc(C)cc(C)c2)cc1 (centres undefined),inactive: 5.4%
23,O=C(OC1CN2CCC1CC2)c1ccc(Cl)cc1 (centres undefined),inactive: 0%
24,COc1ccccc1OP(C)(=O)Nc1cccc(Br)c1 (centres undefined),inactive: 0.2%

row,SMILES,activation
1,CS(=O)(=O)c1ccc(Cl)c(NC(=O)COC(=O)C(O)(c2ccccc2)c2ccccc2)c1,inactive: 2.6%
2,COc1cc(C(=O)NCC2(N3CCOCC3)CCCCC2)cc(Cl)c1OC(C)C,inactive: 1.1%
3,O=[As](O)(O)c1cccnc1,inactive: -1.4%
4,CCOP(=O)(Nc1cccc2ccccc12)OCC,inactive: -1%
5,Cc1ccc(NCCc2c([N+](=O)[O-])cc([N+](=O)[O-])cc2[N+](=O)[O-])cc1,inactive: 4.1%
6,CP(=O)(Nc1cccc(Br)c1)Oc1ccccc1 (centres undefined),inactive: -1.6%
7,Cc1cc(C)cc(OP(C)(=O)Nc2ccccn2)c1 (centres undefined),inactive: 0.5%
8,CCCOP(=S)(Nc1nc(N)cc(=O)[nH]1)OCCC,inactive: -0.2%
9,Cc1ccc(C)c(NP(C)(=O)Oc2ccccc2)c1 (centres undefined),inactive: -1.7%
10,COc1cc(I)ccc1[As](=O)(O)O,inactive: 0.4%
11,COc1ccc2nc(NP(=O)(c3ccccc3)c3ccccc3)sc2c1,inactive: 0.1%
12,Cc1c2c(nc3ccccc13)SC(C(Cl)Cl)C2 (centres undefined),inactive: 2%
13,Cc1cc(=O)[nH]c(N[N+](=O)[O-])n1,inactive: 1.3%
14,CCN(CC)CCCOC(=O)C(O)(c1ccccc1)c1ccccc1,inactive: 0.1%
15,O=C(OC1CN2CCC1CC2)C12CC3CC(CC(C3)C1)C2 (centres undefined),inactive: -0.7%
16,COc1ccc(N/C(=N/P(=O)(N2CCOCC2)N2CCOCC2)N2CCOCC2)cc1,inactive: -0.6%
17,CC(Cc1ccc(O)cc1)NCC(O)c1cc(O)cc(O)c1 (centres undefined),inactive: 2.9%
18,Cc1cccc(C)c1OP(C)(N)=O (centres undefined),inactive: 1.7%
19,CC(C)(C)c1ccc(OP(C)(=O)Nc2ccc(SC(F)(F)F)cc2)cc1 (centres undefined),inactive: 22.1%
20,Cc1ccc(OP(=O)(Nc2ccc([N+](=O)[O-])cn2)Oc2ccc(C)cc2)cc1,inactive: 5%
21,Cc1ccc2nc3c(c(C)c2c1)CC(C(Cl)Cl)S3 (centres undefined),inactive: 6.8%
22,O=[N+]([O-])c1cc([N+](=O)[O-])c(Nc2cccnc2)c([N+](=O)[O-])c1,inactive: 7.5%
